Values of other authors in paper PMC11926787 (ACS Chemical Neuroscience, 2025).

Conditions: reference number not given; cited from earlier work

Substance: [^3H] harman
- time of detection in brain after intravenous administration: 30 min
